Earlier results, collected in patent publication US20220151944A1, “FLUOROURACIL-CONTAINING FORMULATIONS” (SISAF LIMITED, priority 2019, published 2022).

In the case of orthosilicic acid, the pKa is given as “around 9.8”.
